ChEMBL document CHEMBL1155536, “Synthesis and evaluation of azabicyclo[3.2.1]octane derivatives as potent mixed vasopressin antagonists” (Bioorg Med Chem Lett, 2010)

Legend:
Homo sapiens [1] = species on record: Homo sapiens; assay: Selectivity ratio of Ki for human Vasopressin V1a receptor to Ki for human Vasopressin V2 receptor
Homo sapiens [2] = species on record: Homo sapiens; assay: Selectivity ratio of IC50 for human Vasopressin V1a receptor to IC50 for human Vasopressin V2 receptor
[3] = Half life in human liver microsome at 1 uM; details: liver microsomes

Ratio Ki (Homo sapiens [1]): 0.05
Ratio IC50 (Homo sapiens [2]): 0.05
half-life at 1 µM [3]: < 1 min
Compound: COc1cc(C(=O)N2C[C@]3(C)C[C@H]2CC(C)(C)C3)ccc1-c1csc2ccccc12
